{"source": "patent US9706755B2", "about": "“Controlled odor mimic permeation system” (dated 2017)", "assay": "Vapour pressure of organic explosives at 25° C.", "details": "DMNB versus any of the nitramine explosives", "data": [{"smiles": "CC(C)([N+](=O)[O-])C(C)(C)[N+](=O)[O-]", "values": [{"measurement": "vapour pressure relative to the nitramine explosives", "value": "more than 1 million"}]}]}
